Screens from PubChem.
The list is not random: actives were taken first. Their share in the collection is about 2.9%.
D3 ag: agonists of human D3 dopamine receptor; P35462; D3R DiscoveRx beta-arrestin cells, luminescence, 90 min; max activation, %; 0.58% of 410,000 active; AID 652048; in the data active = max activation above about 30%
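Cells at 1500/well, incubated overnight, then treated with pinned compounds (dopamine as control) for 90 min at 37 degrees C. DiscoveRx reagent added for 30 - 60 minutes at room temperature; luminescence read.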
MmCpn inh: inhibitors of Methanococcus maripaludis chaperonin TRiC (MmCpn); Potency, µM (top dose mostly 76.9 µM), usual class: inhibitors; 0.031% of 330,000 active; purified Mm-Cpn ATPase, ADP Transcreener TR-FRET; active = well fitted inhibition curve with a large enough effect; inconclusive = small, poorly fitted or top-dose-only effect; note: nearly all actives have a fitted effect of over 80% in size
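Eu-cryptate anti-ADP/ADP-d2 competition gives a ratio inversely related to ADP. Enzyme at 25 nM was pre-exposed to compound for 10 min, then given 10 uM ATP for 30 min, 37°C throughout.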
Rango complex inh: inhibitors of Rango-importin beta complex formation | 0.031% of 340,000 active | Potency, µM (doses to about 92.2 µM) | Q14974 | Rango CFP/YFP FRET sensor + importin beta, 45 min; note: nearly all actives have a fitted effect of over 15% in size
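FRET biosensor (snurportin 1 IBB flanked by EYFP and cerulean), 50 nM, with compound 5 min, then 0.125 microM importin beta in PBS, 1 mM DTT, 0.02% Tween-20, 0.1% BSA. CFP/YFP ratio read after 45 min at room temperature; pre-read flags interference.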
Rango release inh: inhibitors of RanGTP-induced Rango-importin beta complex dissociation; O95149+P62826; Biochemical FRET Rango-importin beta, RanGTP-induced dissociation; Potency, µM (doses to about 46.1 µM); 0.071% of 340,000 active; AID 540253; note: nearly all actives have a fitted effect of over 45% in size
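FRET read at 45 min, room temperature: inhibitors block the CFP/YFP signal rise when RanGTP (0.6 uM Ran, 2 mM GTP, 0.2 uM RCC1) frees Rango (0.1 uM) from importin beta (0.25 uM). Pre-read after 5 min compound exposure flags interference.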
PTAP TSG101 blk: blocks PTAP/TSG101 interaction to inhibit HIV-1 budding. Q99816. Fluorescence polarization, FITC-PTAP peptide / Tsg101 binding. Potency, µM (series often up to 115 µM), hits mostly inhibitors. 340,000 tested, under 10 active. AID 493005; active = well fitted inhibition curve with a large enough effect in the main read-out, with a control signal flat, not every such curve was filed as active; inconclusive = small, poorly fitted or top-dose-only effect, or effect the other way, or a change in a side signal; inactive = no such curve, though single readings can be large or run the other way
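Fluorescence polarization binding of Tsg101 binding domain (10 uM final) to FITC-labeled PTAP peptide (50 nM final) in HEPES pH 7.5 buffer with NaCl, Tween 20, EDTA, TCEP. Compounds added before peptide; binding 20 min at RT.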
D3 antag: blocks the human D3 dopamine receptor. 2.5% of 360,000 active. AID 652054. P35462. max response, negative = inhibition, %. D3R cells, DiscoveRx beta-arrestin luminescence, antagonist mode; stronger effect = lower value; in the data active = max response below about -50%; inconclusive = no clear call, values can overlap the other calls
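Cells expressing the human receptor were seeded at 1500 cells/well, incubated overnight at 37 degrees C in 5% CO2, then exposed to library compounds with dopamine controls for 90 minutes at 37 degrees C before luminescent detection.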
Hits are given with their value; – = inactive; ? = inconclusive; · = no result; [ ] = dose if it differs, or a comment. Unless noted, calls come from the whole dose curve.

SMILES	D3 ag	MmCpn inh	Rango complex inh	Rango release inh	PTAP TSG101 blk	D3 antag
CCN1CCN(C(=O)c2cnn3c(C(F)F)cc(-c4ccc(C)cc4)nc23)CC1	–	–	–	–	–	-56
Cc1cccc(Cc2c(C)nc3c(C(=O)N4CCN(Cc5ccc6c(c5)OCO6)CC4)cnn3c2C)c1	–	–	–	–	–	?
COc1ccc(CNC(=O)c2cc3c(=O)n(Cc4cccs4)ccc3nc2C)cc1	–	·	·	·	·	·
COc1ccc(C(=O)c2oc3ccccc3c2NC(=O)c2nc(SC)ncc2Cl)cc1Cl	–	·	·	·	·	·
CSc1nc(NCC(C)O)c2c3c(sc2n1)CN(C)CC3 (stereo not given)	–	–	?	?	–	–
CSc1nc(SCC(=O)NC(c2ccccc2)c2ccccc2)c2c3c(sc2n1)CN(C)CC3	–	–	–	–	–	-92
CCOC(=O)c1ccccc1NC(=O)CSc1nc(=O)[nH]c2c1CCC2	–	·	·	·	·	·
CN(CC1CCN(CCc2cccc(C(F)(F)F)c2)CC1)C(=O)c1ccc(F)cc1	–	–	–	–	–	-87
CC(C)c1cnc2c(c1SCC(=O)c1ccc(Cl)cc1)c(=O)n(C)c(=O)n2C	–	·	·	·	·	·
CN(C(=O)c1cccc(NC(=O)Cc2ccc(NC(=O)C3CCCN(C(=O)C4CCCC4)C3)cc2)c1)C1CCCCC1 (stereo not given)	–	·	–	–	–	–
CC(=O)c1cccc(NC(=O)Nc2cccs2)c1	–	–	–	–	–	-51
CC[n+]1ccc(C)c2cc(P(=O)(c3ccccc3)c3ccccc3)ccc21	–	–	–	–	–	-58
CC(O)CN(CC(C)O)c1ccc2c(c1)Cc1cc([N+](=O)[O-])ccc1-2 (stereo not given)	–	·	18µM	?	–	?
CC1c2ccccc2CN1NC(=O)c1ccc(Cl)c(S(N)(=O)=O)c1 (stereo not given)	51	·	·	·	·	·
Cc1cccc(C)c1Nc1nnc(SC/C(O)=C(\C#N)c2nc3ccccc3[nH]2)s1	–	–	?	15µM	–	–
N#C/C(=C(/O)CCl)c1nc2ccccc2[nH]1	–	–	?	13µM	–	–
N#C/C(=C(\O)Cc1ccccc1)c1nc2ccccc2[nH]1	–	–	–	?	–	–
Cc1ccc(Nc2nnc(SCC(O)=C(C#N)c3nc4ccccc4[nH]3)s2)c(C)c1	–	·	?	?	–	–
Cc1cccc(Nc2nnc(SC/C(O)=C(\C#N)c3nc4ccccc4[nH]3)s2)c1C	33	–	–	?	–	–
COc1ccc(Br)cc1CNC(=O)c1ccc(-n2c(C)cc3c2CCC(C)C3)cc1 (stereo not given)	–	·	·	·	·	·
O=C(CN1CCCC1c1cccs1)Nc1cccc(S(=O)(=O)N2CCCC2)c1 (stereo not given)	–	–	–	–	–	–
Cc1sc(NC(=O)CCl)c(C(=O)c2ccccc2)c1C	–	–	?	–	–	-66
CC#CCC(C)[C@H](O)/C=C/[C@@H]1[C@H]2c3cccc(CCCC(=O)O)c3O[C@H]2C[C@H]1O (stereo not given in full)	–	·	·	·	·	·
CCn1c(SCc2ccc(F)cc2Cl)nnc1-c1nonc1NC(C)=O	–	·	·	·	·	·
CC(=O)Nc1nc(NC(=O)/C=C/c2ccccc2)n(-c2ccccc2)n1	–	–	?	–	–	-72
SMILES	D3 ag	MmCpn inh	Rango complex inh	Rango release inh	PTAP TSG101 blk	D3 antag
O=C(Nc1nc(NC(=O)c2ccco2)n(-c2ccccc2)n1)c1ccccc1	39	–	–	–	–	–
CCN(C(=O)CSc1n[nH]c(-c2ccccc2)n1)c1c(N)n(Cc2ccccc2)c(=O)[nH]c1=O	–	–	–	–	–	–
COc1ccc(N/C(=N\c2nc(C)cc(C)n2)NC(=O)C(C)C)cc1OC	–	–	–	–	–	-65
COc1ccc(N/C(=N\c2nc(C)cc(C)n2)NC(C)=O)cc1OC	–	–	–	–	–	–
CC(=O)Oc1ccc(C(=O)O)cc1OC(C)=O	–	–[15.4 µM]	–	–	–	–
CC(=O)Oc1cccc2c1C(=O)c1c(OC(C)=O)cc(C(=O)O)cc1C2=O	–	–	–	–	–	-122
Nc1nonc1-n1nnc(C(=O)N/N=C/c2cccc(Cl)c2)c1CSc1ccccc1	39	–	–	–	–	–
Nc1nonc1-n1nnc(C(=O)N/N=C/c2cccc(Cl)c2)c1CSc1ccc(Cl)cc1	–	–	–	–	–	–
O=[N+]([O-])c1c(Nc2ccccc2O)ccc2nonc12	–	–	–	–	–	–
O=[N+]([O-])c1c(Nc2ccccc2O)cc(Cl)c2nonc12	–	–	–	–	–	-140
NS(=O)(=O)c1cccc(NC(=O)CCCNC(=O)c2ccc(Cl)cc2)c1	–	–	16µM	–	–	–
Cc1ccccc1NC(=O)CSC1=Nc2ccccc2C2=NC(CCC(=O)NCc3ccccc3)C(=O)N12 (stereo not given)	–	·	·	·	·	·
COc1ccc(C(C)(NC(C)=O)c2nc(-c3ccccc3OC)cs2)cc1 (stereo not given)	–	·	·	·	·	-88
Cc1cc(C)c2oc(-c3cccc(NC(=O)c4cc5ccccc5o4)c3)nc2c1	–	·	·	·	·	·
O=C1C=CC(=O)N1c1ccccc1N1C(=O)C=CC1=O	–	·	–	–	–	-113
O=C(c1ccccc1)c1ccccc1N1C(=O)C=CC1=O	–	–	–	–	–	?
CC1=C(/C=C/C(C)=C/C=C/C(C)=C/C=C/C=C(C)/C=C/C=C(C)/C=C/C2=C(C)C[C@@H](O)CC2(C)C)C(C)(C)C[C@H](O)C1	–	·	·	·	·	·
CCCCC(=O)Nc1ccc(C(=O)NCCc2ccccc2)cc1	–	–	–	–	–	-62
CCCCC(=O)Nc1ccc(C(=O)NNC(=O)CCc2ccccc2)cc1	–	–	–	–	–	–
CCCCCC(=O)NNC(=O)c1ccc(-c2ccccc2)cc1	36	–	–	–	–	–
Cc1cc(NC(=O)CN(c2cccc(C)c2C)S(=O)(=O)c2ccccc2)ccc1Br	–	·	·	·	·	·
CC1CCN(C(=O)c2ccc(NS(=O)(=O)c3ccc4[nH]c(=O)[nH]c4c3)cc2)CC1	–	–	–	–	–	–
Cc1ncc(CO)c(/C=N/NC(=S)Nc2ccc(F)cc2)c1O	–	–	?	?	–	–
Cc1ncc(CO)c(/C=N/Nc2ccc(C(F)(F)F)cn2)c1O	–	–	?	?	–	-74
CC(=O)O[C@@H]1[C@@H](O)[C@@H](O)[C@H](Oc2c(-c3ccc(O)cc3)oc3c(CC=C(C)C)c(O)cc(O)c3c2=O)O[C@H]1C	–	·	–	–	–	–
